Source: patent US20050163775A1, “Combination therapy for B cell disorders” (Genentech, Inc., priority 2003, published 2005)

Chains of the proteins cited; added tags and fusions are not shown. Residues count along the entry.
UniProt Q9Y275, 82-285: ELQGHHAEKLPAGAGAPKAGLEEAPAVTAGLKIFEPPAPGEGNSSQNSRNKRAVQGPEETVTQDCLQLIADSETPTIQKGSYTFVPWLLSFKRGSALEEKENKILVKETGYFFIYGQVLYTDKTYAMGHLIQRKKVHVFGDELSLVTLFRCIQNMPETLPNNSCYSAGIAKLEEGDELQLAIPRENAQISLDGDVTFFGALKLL

Key:
[1] = test system: splenic germinal center B cells; assay: Splenic germinal center B cells after SRBC immunization and single anti-CD20 mAb injection (FACS, PNA); assay type: in vivo, mouse; details: SRBC immunized, mAb at day 8, spleen analyzed day 12
[2] = test system: T-independent B cell response; assay: T-independent immune response to Streptococcus pneumoniae IV after B cell depletion; assay type: in vivo, mouse; details: mAb day 0, S. pneumoniae IV i.v. day 7, response day 11
Procedure: On the 3 panels at the right, the spleen cells were stained for the streptococcus polysaccharide-phosphatidyl choline (the TI antigen). CD138 is a marker for plasma cells.
Next, it was determined whether upon B cell depletion, the mice were able to develop T independent immune response. Mice were treated with m2H7 or isotpype control antibody mIgG2a at day 0. At days 3-7, B cell depletion has occurred. At day 7, the mice were injected i.v. with Streptococcus pneumoniae IV to induce a response to the polysaccharide. A T cell independent response was mounted on day 11.

[3] = test system: B cells; assay: B cell depletion and recovery after anti-hCD20 mAb in human CD20 BAC transgenic mice (FACS); assay type: in vivo, mouse
[4] = Expected serum IgG and IgM in responding human patients; assay type: in vivo; details: human patients responding to treatment
[5] = test system: B cells; assay: B cell depletion by anti-CD20 mAb, BR3-Fc or combination in hCD20+ mice (FIG. 29, 30); assay type: in vivo, mouse
Procedure: FACS analysis was performed on of spleen, blood, lymph node B cells (gated on CD21^+CD23^+). The combination therapy clearly produced a synergistic effect in depleting B cells, and especially marginal zone, T2 and follicular B cells in the spleen.
Mice were treated with control IgG2a, BAFFR/BR3-Fc (100 μg/mouse IP daily for 12 days), anti-hCD20 mAb (100 μg/mouse IP on day 9) or the combination of BAFFR/BR3-Fc and anti-hCD20 mAb (same dosing as single treatment groups). B220^+ splenocytes were isolated on day 13 and stained for CD21 and CD23. N=5 mice/group.
In the Experimental Examples, the BR3-Fc or BAFFR/BR3-Fc used is hBR3-Fc of SEQ ID. NO. 2. For the experiment shown in FIG. 29, FVB mice expressing a bacterial artificial chromosome encoding human CD20 (designated as hCD20^+ mice) were treated with intraperitoneal injections of anti-CD20 mAb (single injection of 100 micrograms on Day 9), BR3-Fc (100 micrograms every other day from Days1 through 12), or the combination of anti-CD20 mAb and BR3-Fc. Each group consisted of 4 mice. Two days following the last injection, the mice were sacrificed and analyzed for hCD20^+ B cells. FACS analysis of spleen, blood, lymph node and Peyer's Patches were analyzed for B cell markers (CD21^+CD23^+).
For the experiment shown in FIG. 30, hCD20 Tg+ mice were treated with control IgG2a, BAFFR/BR3-Fc (100 μg/mouse IP daily for 12 days), anti-hCD20 mAb (100 μg/mouse IP on day 9) or the combination of BAFFR/BR3-Fc and anti-hCD20 mAb (same dosing as single treatment groups). B220^+ splenocytes were isolated on day 13 and stained for CD21 and CD23. N=5 mice/group. […] The mice were treated with single doses of 0.1 mg control IgG2a, BAFF/BR3-Fc or anti-hCD20 mAb. Splenocytes were analyzed on day 4. N=5 mice/group.

[6] = target: T1, human BAFF (residues 82-285) (human, UniProt Q9Y275 82-285); assay: competitive displacement ELISA on BLyS-coated plates, biotinylated miniBR3 as tracer; separate experiment
T1 construct: Coated on plates in the ELISAs; also used biotinylated or free in solution for phage sorting; also called BAFF82-285; BLyS82-285
Procedure: (§1) The plate was washed with PBS and blocked with 1% skim milk in PBS. […] After washing with PBS/0.05% Tween, 100 μl well of each dilution was transferred and incubated for 1 hour at room temperature. The plate was washed with PBS/0.05% Tween and incubated 15 min with 100 μl/well of 0.1 U/ml Streptavidin-POD (Boehringer Mannheim) in PBS/0.05% Tween. After washing with PBS/0.05% Tween followed by PBS, the plate was incubated 5 min with 100 μl PBS substrate solution containing 0.8 mg/ml OPD (Sigma) and 0.01% H₂O₂. The reaction was quenched with 100 μl/well 1M H₃PO₄ and the plate read at 490 nm. […] The equation is: y=ml+(m2−m1)/(1+m0/m4)\hat{ }m3, where m1 is the absorbance at infinite competitor concentration, m2 is the absorbance for no added competitor, m3 is the slope of the curve near the midpoint, m4 is the IC50 value and m0 is the concentration of competitor, peptide in this case.

[7] = target: T1, human BAFF (residues 82-285); assay: competitive displacement ELISA on BLyS-coated plates, biotinylated miniBR3 as tracer
Procedure: as §1

B1: m2H7: murine anti-human CD20 antibody, VH SEQ ID NO: 23, VL SEQ ID NO: 24 (antibody, listed as Mus musculus, V domains shown)
VH: QAYLQQSGAELVRPGASVKMSCKASGYTFTSYNMHWVKQTPRQGLEWIGAIYPGNGDTSYNQKFKGKATLTVDKSSSTAYMQLSSLTSEDSAVYFCARVVYYSNSYWYFDVWGTGTTVTVS
VL: QIVLSQSPAILSASPGEKVTMTCRASSSVSYMHWYQQKPGSSPKPWIYAPSNLASGVPARFSGSGSGTSYSLTISRVEAEDAATYYCQQWSFNPPTFGAGTKLELK
With B1 the “T2/follicular B cells” value [1] was “depleted”, the “depletion of splenic germinal center B cells” value [1] was “No depletion of germinal center B cells was detected” and the “marginal center B cells in the spleen” value [1] was “resistant”. For the same molecule, the “B cell response from the marginal zone and germinal centers of the spleen to T-independent antigen” value [2] was “did not affect the B cell response”, the “T2/follicular B cells” value ([3]; 100 ug on day 1 and 100 ug on day 3) was “depleted” and the “germinal center B cells from the Peyer's patches” value ([3]; 100 ug on day 1 and 100 ug on day 3, cells bound with mAb) was “resistant to killing”. The “B cells in the peripheral blood” value ([3]; day 6 post antibody treatment) was “not detectable”, the “depletion of bone marrow B cell stages (FIG. 24)” value ([3]; hCD20 Tg+ mice) was “depletion of recirculating mature B cells, but not immature/pre-B or pro-B cells” and the “time to B cell depletion after treatment” value ([3]; hCD20 Tg+ mice) was 3 to 4 days. The “depletion of B cells in blood, lymph node and spleen” value ([3]; hCD20 Tg+ mice, anti-hCD20 mAb alone, 1 mg total = 50 mg/kg) was “depletion of B cells in peripheral blood, mature peripheral lymph node B cells, T2 and follicular B cells in the spleen”, the “killing of marginal zone B cells in the spleen and germinal center B cells in Peyer's patches and spleen” value ([3]; hCD20 Tg+ mice, likely saturating antibody on cell surface) was “resistant to killing” and the “hCD20+ cells in peripheral blood” value ([3]; week 6, upon clearance of the antibody) was “begin to be detected”. For the same molecule, the “B cells in peripheral blood” value ([3]; week 14) was “recovered to normal levels”, the “serum IgG and IgM levels” value [4] was “reduction in serum IgG and IgM levels” and the “T2 and follicular B cells in the spleen” value [5] was “depletes”. For the same molecule, the “marginal zone B cells in the spleen” value [5] was “but not marginal zone B cells” and the “depletion of mature circulating B cells in the blood and lymph nodes” value ([5]; 100 micrograms on Day 9) was > 99%.

B2: blys0095-20 kPEG conjugate (peptide)
peptide: ECFDLLVRHWVPCGLLK
modifications: linear 20K PEG-NHS (20KPEG-SPA) coupled to a primary amine (lysine or N-terminus); PEG:peptide approximately 1:1
In the case of B2, the IC50 [6] is reported as 99 nM.

B3: blys0095-2kPEG conjugate (peptide)
peptide: ECFDLLVRHWVPCGLLK
modifications: linear 2K PEG-NHS (2KPEG-SPA) coupled to a primary amine (lysine or N-terminus); PEG:peptide approximately 1:1
B3 showed an IC50 [7] of 43 nM.

B4: blys0095-5 kPEG conjugate (peptide)
peptide: ECFDLLVRHWVPCGLLK
modifications: linear 5K PEG-NHS (5KPEG-SPA) coupled to a primary amine (lysine or N-terminus); PEG:peptide approximately 1:1
B4 showed an IC50 [7] of 51 nM.

B5: ECFDLLVRHWVPCGLLK (blys0095) (peptide)
peptide: ECFDLLVRHWVPCGLLK
modifications: end groups not printed for this peptide; synthesized as described above (Rink amide resin, N-terminal acylation, oxidized)
notes: Unconjugated peptide
In the case of B5, the IC50 [7] is reported as 19 nM.
